Assay results as given in PubChem BioAssay (NCI).
The entries are a selection whose mix differs from that of the whole data set.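 Method: cells in 96-well plates; compound added at one concentration; 48 h incubation; percent growth measured; values under 10 scored active.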 Active and inactive are the calls of the source.

Experiments:
Assay in all cases: NCI-60 one-dose screen, 48 h (100 = growth as untreated, 0 = no growth, -100 = all killed)
Details in all cases: 10 µM unless noted
[1] = system: NCI-H23 lung
[2] = system: NCI-H226 lung
[3] = system: NCI-H322M lung
[4] = system: HOP-62 NSCLC
[5] = system: NCI-H460 lung
[6] = system: HOP-92 NSCLC
[7] = system: NCI-H522 lung
[8] = system: A549/ATCC NSCLC
[9] = system: 786-0 renal
[10] = system: COLO 205 colon
[11] = system: DU-145 prostate
[12] = system: K-562 leukemia
[13] = system: MALME-3M melanoma
[14] = system: MDA-MB-231 breast
[15] = system: RXF 393 renal
[16] = system: SF-268 CNS
[17] = system: SF-295 CNS
[18] = system: SF-539 CNS
[19] = system: UACC-257 melanoma
[20] = system: M14 melanoma

Measured: growth

Nc1cccc2ccc([As](=O)(O)O)cc12
inactive: [1] 112% | [2] 99.2% | [3] 115% | [4] 86.5% | [5] 108% | [6] 112% | [7] 103% | [8] 103% | [9] 92.7% | [10] 133% | [11] 120% | [12] 109% | [13] 105% | [14] 113% | [15] 109% | [16] 107% | [17] 114% | [18] 95.4% | [19] 107%

CC1CN1P(=O)(Nc1ncccn1)N1CC1C (configuration not stated)
inactive: [1] 96.2% | [2] 105% | [3] 118% | [4] 100% | [5] 96.6% | [6] 94.4% | [7] 88.1% | [8] 102% | [9] 108% | [10] 111% | [11] 111% | [12] 117% | [13] 114% | [14] 110% | [15] 107% | [16] 97.1% | [17] 111% | [18] 89.2% | [19] 109% | [20] 99.9%

S=P(Cl)(N1CCCCCC1)N1CC1 (configuration not stated)
inactive: [1] 102% | [2] 98.7% | [3] 105% | [4] 103% | [5] 108% | [6] 91.3% | [7] 97.5% | [8] 97.4% | [9] 101% | [10] 112% | [11] 110% | [12] 104% | [13] 98.6% | [14] 100% | [15] 126% | [16] 104% | [17] 104% | [18] 97.3% | [19] 99.6% | [20] 103%

CC(C)OP(=S)(Cl)OC(C)C
inactive: [1] 99.2% | [2] 106% | [3] 92.6% | [4] 104% | [5] 107% | [6] 126% | [7] 90% | [8] 112% | [9] 105% | [10] 107% | [11] 110% | [12] 91.4% | [13] 86.6% | [14] 127% | [15] 109% | [16] 108% | [17] 99.4% | [18] 98.2% | [19] 106% | [20] 108%

COc1ccc(N)c([N+](=O)[O-])c1[N+](=O)[O-]
inactive: [1] 98.6% | [2] 108% | [3] 114% | [4] 104% | [5] 103% | [6] 33.3% | [7] 102% | [8] 100% | [9] 105% | [10] 122% | [11] 110% | [12] 101% | [13] 99.3% | [14] 92.8% | [15] 101% | [16] 105% | [17] 110% | [18] 101% | [19] 88.7% | [20] 94.7%

CCOCCN(CCCl)Cc1ccccc1
inactive: [1] 104% | [2] 109% | [3] 102% | [4] 88.7% | [5] 110% | [6] 89.8% | [7] 92.2% | [8] 91.3% | [9] 102% | [10] 114% | [11] 107% | [12] 92% | [13] 102% | [14] 107% | [15] 108% | [16] 97.7% | [17] 107% | [18] 94.4% | [19] 97.3% | [20] 110%

C=NNc1ccc([N+](=O)[O-])cc1[N+](=O)[O-]
inactive: [1] 100% | [2] 88.1% | [3] 77.9% | [4] 102% | [5] 96.9% | [6] 83.8% | [7] 68.9% | [8] 92.1% | [9] 103% | [10] 99.4% | [11] 88.6% | [12] 64.7% | [13] 94.4% | [14] 81.3% | [15] 93.8% | [16] 82.4% | [17] 90.6% | [18] 98.9% | [19] 90.1% | [20] 92.5%

O=C1OCCN1P(=O)(Cl)N1CCOC1=O
inactive: [1] 87.7% | [2] 104% | [3] 126% | [4] 107% | [5] 119% | [6] 79.4% | [7] 101% | [8] 92.3% | [9] 97% | [10] 107% | [11] 115% | [12] 99.3% | [13] 121% | [14] 102% | [15] 94.6% | [16] 107% | [17] 107% | [18] 107% | [19] 103% | [20] 99.9%

CC(Cc1ccccc1)N(CCCl)Cc1ccccc1 (configuration not stated)
inactive: [1] 93.6% | [2] 78.9% | [3] 97.5% | [4] 96.8% | [5] 110% | [6] 99% | [7] 72.6% | [8] 91.1% | [9] 97.4% | [10] 110% | [11] 106% | [12] 91.9% | [13] 95.4% | [14] 106% | [15] 113% | [16] 103% | [17] 94.4% | [18] 97.5% | [19] 91.1% | [20] 95.5%

CC1(CCC2(C)N=C(NN=C(CCl)CCl)SP2(=O)Nc2ncccn2)N=C(NN=C(CCl)CCl)SP1(=O)Nc1ncccn1 (configuration not stated)
inactive: [1] 96.7% [100 µM] | [2] 89.5% [100 µM] | [3] 98.9% [100 µM] | [4] 97.2% [100 µM] | [5] 105% [100 µM] | [6] 90.9% [100 µM] | [7] 90.6% [100 µM] | [8] 99.5% [100 µM] | [9] 98% [100 µM] | [10] 112% [100 µM] | [11] 110% [100 µM] | [12] 107% [100 µM] | [13] 100% [100 µM] | [14] 108% [100 µM] | [15] 98% [100 µM] | [16] 100% [100 µM] | [17] 110% [100 µM] | [18] 103% [100 µM] | [19] 94.7% [100 µM] | [20] 104% [100 µM]

Nc1cccc2c([As](=O)(O)O)cccc12
inactive: [1] 94.5% | [2] 97.4% | [3] 141% | [4] 81.4% | [5] 109% | [6] 112% | [7] 109% | [8] 108% | [9] 88.9% | [10] 119% | [11] 112% | [12] 92.3% | [13] 114% | [14] 113% | [15] 112% | [16] 103% | [17] 108% | [18] 94.7% | [19] 96%

Cc1ccc(C)c(C(=O)N(CCCl)CCCl)c1
inactive: [1] 106% | [2] 96.9% | [3] 95.2% | [4] 102% | [5] 104% | [6] 98.9% | [7] 101% | [8] 103% | [9] 108% | [10] 113% | [11] 104% | [12] 112% | [13] 89.3% | [14] 105% | [15] 95% | [16] 99% | [17] 85.3% | [18] 104% | [19] 112% | [20] 107%

COc1cc([N+](=O)[O-])cc([N+](=O)[O-])c1
inactive: [1] 99.9% | [2] 113% | [3] 139% | [4] 109% | [5] 111% | [6] 130% | [7] 85% | [8] 100% | [9] 108% | [10] 113% | [11] 111% | [12] 106% | [13] 131% | [14] 88.3% | [15] 121% | [16] 98.5% | [17] 117% | [18] 106% | [19] 100%

O=C1NC(c2ccccc2)(c2ccccc2)C(=O)N1P(=O)(Oc1ccccc1)Oc1ccccc1
inactive: [1] 102% | [2] 99.7% | [3] 104% | [4] 90.3% | [5] 106% | [6] 82.6% | [7] 98.8% | [8] 102% | [9] 102% | [10] 106% | [11] 114% | [12] 98.3% | [13] 97.8% | [14] 106% | [15] 102% | [16] 106% | [17] 113% | [18] 101% | [19] 105% | [20] 99.9%

O=C(Nc1ccc([N+](=O)[O-])cc1)N(CCBr)CCBr
inactive: [1] 101% | [2] 99.3% | [3] 94.8% | [4] 109% | [5] 107% | [6] 82.9% | [7] 94.8% | [8] 90.1% | [9] 95% | [10] 108% | [11] 114% | [12] 104% | [13] 96.1% | [14] 110% | [15] 104% | [16] 102% | [17] 95.5% | [18] 97% | [19] 99.4% | [20] 97.7%

O=C(CCC(=O)Oc1c(Cl)cc([N+](=O)[O-])cc1[N+](=O)[O-])Oc1c(Cl)cc([N+](=O)[O-])cc1[N+](=O)[O-]
inactive: [1] 102% | [2] 101% | [3] 112% | [4] 96.5% | [5] 106% | [6] 99.1% | [7] 103% | [8] 105% | [9] 107% | [10] 116% | [11] 112% | [12] 92.2% | [13] 129% | [14] 117% | [15] 118% | [16] 107% | [17] 126% | [18] 110% | [19] 109% | [20] 118%
